This data set in a line: in vivo. As to conditions: mouse.

As for `CCn1cc(C(=O)O)c(=O)c2cnc(N3CCNCC3)nc21` [Compound J, 5,8-Dihydro-8-ethyl-2-(1-piperazinyl)-5-oxopyrido[2,3-d]pyrimidine-6-carboxylic acid], where the note is “iv”, the selectivity ratio was determined as 17. Moreover, for the setting “sc”, the LD50 at 168 h stood at 2240 mg/kg and the selectivity ratio was 60.

For the origin of these results see patent US4103011A, “Novel penicillin compounds and process for preparation thereof” (priority 1976, dated 1978).
